Laboratory results as given in PubChem BioAssay (NCI).
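Compound exposure: 48 hours, 5 concentrations, 96-well plates. GI50 is the concentration that inhibits growth by half. TGI: total growth inhibition.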

Tests used:
Assay in all cases: NCI tumour cell line growth inhibition, 48 h
HCT-116 colon = tested on: HCT-116 colon
HL-60(TB) leukemia = tested on: HL-60(TB) leukemia
HS 578T breast = tested on: HS 578T breast
SK-OV-3 ovarian = tested on: SK-OV-3 ovarian
K-562 leukemia = tested on: K-562 leukemia
RPMI-8226 leukemia = tested on: RPMI-8226 leukemia
NCI-H23 lung = tested on: NCI-H23 lung
LOX IMVI melanoma = tested on: LOX IMVI melanoma
HCT-15 colon = tested on: HCT-15 colon
SF-539 CNS = tested on: SF-539 CNS
BT-549 breast = tested on: BT-549 breast
COLO 205 colon = tested on: COLO 205 colon
SK-MEL-2 melanoma = tested on: SK-MEL-2 melanoma
HOP-92 NSCLC = tested on: HOP-92 NSCLC
IGROV1 ovarian = tested on: IGROV1 ovarian
CAKI-1 renal = tested on: CAKI-1 renal
MOLT-4 leukemia = tested on: MOLT-4 leukemia
RXF 393 renal = tested on: RXF 393 renal
HT29 colon = tested on: HT29 colon
NCI-H322M lung = tested on: NCI-H322M lung
A498 renal = tested on: A498 renal
MDA-MB-435 = tested on: MDA-MB-435
SW-620 colon = tested on: SW-620 colon
NCI-H226 lung = tested on: NCI-H226 lung
UACC-62 melanoma = tested on: UACC-62 melanoma
SF-295 CNS = tested on: SF-295 CNS
OVCAR-5 ovarian = tested on: OVCAR-5 ovarian
CCRF-CEM leukemia = tested on: CCRF-CEM leukemia
A549 NSCLC = tested on: A549 NSCLC
MALME-3M melanoma = tested on: MALME-3M melanoma
DU-145 prostate = tested on: DU-145 prostate
EKVX NSCLC = tested on: EKVX NSCLC
SK-MEL-28 melanoma = tested on: SK-MEL-28 melanoma
KM12 colon = tested on: KM12 colon
MDA-MB-231 breast = tested on: MDA-MB-231 breast
UACC-257 melanoma = tested on: UACC-257 melanoma
M14 melanoma = tested on: M14 melanoma
SNB-75 CNS = tested on: SNB-75 CNS
SK-MEL-5 melanoma = tested on: SK-MEL-5 melanoma
U251 CNS = tested on: U251 CNS
OVCAR-3 ovarian = tested on: OVCAR-3 ovarian
MCF7 breast = tested on: MCF7 breast
786-0 renal = tested on: 786-0 renal
OVCAR-8 ovarian = tested on: OVCAR-8 ovarian
OVCAR-4 ovarian = tested on: OVCAR-4 ovarian
NCI-H522 lung = tested on: NCI-H522 lung
SN12C renal = tested on: SN12C renal
PC-3 prostate = tested on: PC-3 prostate
SR leukemia = tested on: SR leukemia
NCI/ADR-RES ovarian = tested on: NCI/ADR-RES ovarian
HCC-2998 colon = tested on: HCC-2998 colon
HOP-62 NSCLC = tested on: HOP-62 NSCLC
ACHN renal = tested on: ACHN renal
SNB-19 CNS = tested on: SNB-19 CNS
SF-268 CNS = tested on: SF-268 CNS
T-47D breast = tested on: T-47D breast
MDA-N = tested on: MDA-N
NCI-H460 lung = tested on: NCI-H460 lung
TK-10 renal = tested on: TK-10 renal
UO-31 renal = tested on: UO-31 renal

With CC1=CC23C(COC(=O)C24CO4)C(C(=O)O)=CC3C1C.NCc1ccccc1 (stereo not drawn) the TGI (HCT-116 colon) was 21.7 µM, the TGI (HL-60(TB) leukemia) was 24.4 µM and the TGI (HS 578T breast) was 0.941 µM. It also gave a TGI (SK-OV-3 ovarian) of 43.9 µM, a TGI (K-562 leukemia) of 19.7 µM and a TGI (RPMI-8226 leukemia) of 0.679 µM. For the same compound, the TGI (NCI-H23 lung) was 33.7 µM, the TGI (LOX IMVI melanoma) was 3.98 µM and the TGI (HCT-15 colon) was 23.9 µM. For the same compound, the TGI (SF-539 CNS) was 7.31 µM, the TGI (BT-549 breast) was greater than 100 µM and the TGI (COLO 205 colon) was 75.5 µM. For the same compound, the TGI (SK-MEL-2 melanoma) was 0.62 µM, the TGI (HOP-92 NSCLC) was 2.75 µM and the TGI (IGROV1 ovarian) was 14.8 µM. The TGI (CAKI-1 renal) was 10.7 µM, the TGI (MOLT-4 leukemia) was 9.4 µM and the TGI (RXF 393 renal) was 2.04 µM. The TGI (HT29 colon) was 35.7 µM, the TGI (NCI-H322M lung) was 6.5 µM and the TGI (A498 renal) was 8.25 µM. The TGI (MDA-MB-435) was 30.3 µM, the TGI (SW-620 colon) was 60.4 µM and the TGI (NCI-H226 lung) was 11.7 µM. For the same compound, the TGI (UACC-62 melanoma) was 2.53 µM, the TGI (SF-295 CNS) was greater than 100 µM and the TGI (OVCAR-5 ovarian) was greater than 100 µM. It also gave a TGI (CCRF-CEM leukemia) of 8.06 µM, a TGI (A549 NSCLC) of 29.7 µM and a TGI (MALME-3M melanoma) of 1.18 µM. It also gave a TGI (DU-145 prostate) of 17.8 µM, a TGI (EKVX NSCLC) greater than 100 µM and a TGI (SK-MEL-28 melanoma) of 0.393 µM. The TGI (KM12 colon) was 5.11 µM, the TGI (MDA-MB-231 breast) was greater than 100 µM and the TGI (UACC-257 melanoma) was greater than 100 µM. For the same compound, the TGI (M14 melanoma) was 0.989 µM, the TGI (SNB-75 CNS) was 19.2 µM and the TGI (SK-MEL-5 melanoma) was 7.77 µM. The TGI (U251 CNS) was 59.1 µM, the TGI (OVCAR-3 ovarian) was greater than 100 µM and the TGI (MCF7 breast) was greater than 100 µM. It also gave a TGI (786-0 renal) of 13.2 µM, a TGI (OVCAR-8 ovarian) of 12.2 µM and a TGI (OVCAR-4 ovarian) of 46 µM. The TGI (NCI-H522 lung) was 0.541 µM, the TGI (SN12C renal) was 2.66 µM and the TGI (PC-3 prostate) was 17.6 µM. It also gave a TGI (SR leukemia) of 13.4 µM, a TGI (NCI/ADR-RES ovarian) of 4.69 µM and a TGI (HCC-2998 colon) of 11.8 µM. For the same compound, the TGI (HOP-62 NSCLC) was 7.37 µM, the TGI (ACHN renal) was 55.3 µM and the TGI (SNB-19 CNS) was greater than 100 µM. The TGI (SF-268 CNS) was 3.17 µM, the TGI (T-47D breast) was 15.3 µM and the TGI (MDA-N) was 13.7 µM. For the same compound, the TGI (NCI-H460 lung) was 11 µM, the TGI (TK-10 renal) was 57.5 µM and the TGI (UO-31 renal) was greater than 100 µM.

With O=[N+]([O-])C(F)(CCNCC(F)([N+](=O)[O-])[N+](=O)[O-])[N+](=O)[O-] the GI50 (HCT-116 colon) was 1.35 µM, the TGI (HCT-116 colon) was 8.91 µM and the GI50 (HL-60(TB) leukemia) was 0.397 µM. For the same compound, the TGI (HL-60(TB) leukemia) was 1.48 µM, the GI50 (HS 578T breast) was 8.08 µM and the TGI (HS 578T breast) was 28.1 µM. For the same compound, the GI50 (SK-OV-3 ovarian) was 7.39 µM, the TGI (SK-OV-3 ovarian) was 22.4 µM and the GI50 (K-562 leukemia) was 0.401 µM. It also gave a TGI (K-562 leukemia) of 2.97 µM, a GI50 (RPMI-8226 leukemia) of 0.344 µM and a TGI (RPMI-8226 leukemia) of 2.58 µM. It also gave a GI50 (NCI-H23 lung) of 2.78 µM, a TGI (NCI-H23 lung) of 13.4 µM and a GI50 (LOX IMVI melanoma) of 1.87 µM. For the same compound, the TGI (LOX IMVI melanoma) was 9.4 µM, the GI50 (HCT-15 colon) was 1.34 µM and the TGI (HCT-15 colon) was 16.3 µM. The GI50 (BT-549 breast) was 1.34 µM, the TGI (BT-549 breast) was 3.7 µM and the GI50 (COLO 205 colon) was 1.76 µM. For the same compound, the TGI (COLO 205 colon) was 3.77 µM, the GI50 (SK-MEL-2 melanoma) was 2.77 µM and the TGI (SK-MEL-2 melanoma) was 8.16 µM. For the same compound, the GI50 (HOP-92 NSCLC) was 1.66 µM, the TGI (HOP-92 NSCLC) was 3.9 µM and the GI50 (IGROV1 ovarian) was 1 µM. It also gave a TGI (IGROV1 ovarian) of 2.74 µM, a GI50 (CAKI-1 renal) of 2.35 µM and a TGI (CAKI-1 renal) of 6.35 µM. It also gave a GI50 (MOLT-4 leukemia) of 1.6 µM, a TGI (MOLT-4 leukemia) of 8.45 µM and a GI50 (RXF 393 renal) of 9.23 µM. For the same compound, the TGI (RXF 393 renal) was 25.6 µM, the GI50 (HT29 colon) was 1.86 µM and the TGI (HT29 colon) was 16.7 µM. It also gave a GI50 (NCI-H322M lung) of 14.2 µM, a TGI (NCI-H322M lung) of 35.9 µM and a GI50 (A498 renal) of 8.3 µM. For the same compound, the TGI (A498 renal) was 24.5 µM, the GI50 (MDA-MB-435) was 0.625 µM and the TGI (MDA-MB-435) was 3.22 µM. For the same compound, the GI50 (SW-620 colon) was 1.1 µM, the TGI (SW-620 colon) was 15.3 µM and the GI50 (NCI-H226 lung) was 9.88 µM. It also gave a TGI (NCI-H226 lung) of 40.8 µM, a GI50 (UACC-62 melanoma) of 1.58 µM and a TGI (UACC-62 melanoma) of 3.71 µM. It also gave a GI50 (SF-295 CNS) of 8.67 µM, a TGI (SF-295 CNS) of 23.5 µM and a GI50 (OVCAR-5 ovarian) of 4.24 µM. It also gave a TGI (OVCAR-5 ovarian) of 16.9 µM, a GI50 (CCRF-CEM leukemia) of 0.632 µM and a TGI (CCRF-CEM leukemia) of 4.11 µM. For the same compound, the GI50 (A549 NSCLC) was 5.74 µM, the TGI (A549 NSCLC) was 21.5 µM and the GI50 (MALME-3M melanoma) was 1.56 µM. The TGI (MALME-3M melanoma) was 3.48 µM, the GI50 (DU-145 prostate) was 2.01 µM and the TGI (DU-145 prostate) was 4.82 µM. It also gave a GI50 (EKVX NSCLC) of 2.08 µM, a TGI (EKVX NSCLC) of 5.24 µM and a GI50 (SK-MEL-28 melanoma) of 4.74 µM. For the same compound, the TGI (SK-MEL-28 melanoma) was 34.3 µM, the GI50 (KM12 colon) was 1.86 µM and the TGI (KM12 colon) was 4.66 µM. The GI50 (MDA-MB-231 breast) was 2.91 µM, the TGI (MDA-MB-231 breast) was 10.4 µM and the GI50 (UACC-257 melanoma) was 2.83 µM. The TGI (UACC-257 melanoma) was 8.75 µM, the GI50 (M14 melanoma) was 1.48 µM and the TGI (M14 melanoma) was 4.12 µM. For the same compound, the GI50 (SNB-75 CNS) was 10.1 µM, the TGI (SNB-75 CNS) was 27.5 µM and the GI50 (SK-MEL-5 melanoma) was 1.34 µM. It also gave a TGI (SK-MEL-5 melanoma) of 3.26 µM, a GI50 (U251 CNS) of 4.23 µM and a TGI (U251 CNS) of 18.2 µM. The GI50 (OVCAR-3 ovarian) was 2 µM, the TGI (OVCAR-3 ovarian) was 4.81 µM and the GI50 (MCF7 breast) was 1.56 µM. For the same compound, the TGI (MCF7 breast) was 18.4 µM, the GI50 (786-0 renal) was 1.98 µM and the TGI (786-0 renal) was 5.82 µM. The GI50 (OVCAR-8 ovarian) was 2.44 µM, the TGI (OVCAR-8 ovarian) was 18.8 µM and the GI50 (OVCAR-4 ovarian) was 3.86 µM. For the same compound, the TGI (OVCAR-4 ovarian) was 12.9 µM, the GI50 (NCI-H522 lung) was 0.529 µM and the TGI (NCI-H522 lung) was 1.97 µM. The GI50 (SN12C renal) was 2.25 µM, the TGI (SN12C renal) was 5.84 µM and the GI50 (PC-3 prostate) was 2.65 µM. The TGI (PC-3 prostate) was 9.15 µM, the GI50 (SR leukemia) was 0.226 µM and the TGI (SR leukemia) was 0.841 µM. The GI50 (NCI/ADR-RES ovarian) was 3.16 µM, the TGI (NCI/ADR-RES ovarian) was 17.9 µM and the GI50 (HCC-2998 colon) was 1.75 µM. It also gave a TGI (HCC-2998 colon) of 4.21 µM, a GI50 (HOP-62 NSCLC) of 3.23 µM and a TGI (HOP-62 NSCLC) of 10.5 µM. For the same compound, the GI50 (ACHN renal) was 1.99 µM, the TGI (ACHN renal) was 10.2 µM and the GI50 (SNB-19 CNS) was 3.08 µM. It also gave a TGI (SNB-19 CNS) of 15 µM, a GI50 (SF-268 CNS) of 3.93 µM and a TGI (SF-268 CNS) of 25.3 µM. For the same compound, the GI50 (T-47D breast) was 2.27 µM, the TGI (T-47D breast) was 7.96 µM and the GI50 (MDA-N) was 0.576 µM. For the same compound, the TGI (MDA-N) was 2.32 µM, the GI50 (NCI-H460 lung) was 2.64 µM and the TGI (NCI-H460 lung) was 10.5 µM. The GI50 (TK-10 renal) was 2.39 µM, the TGI (TK-10 renal) was 19.3 µM and the GI50 (UO-31 renal) was 2.31 µM. The TGI (UO-31 renal) was 5.34 µM.
